Chains of the proteins cited; added tags and fusions are not shown.
UniProt P30542, whole entry: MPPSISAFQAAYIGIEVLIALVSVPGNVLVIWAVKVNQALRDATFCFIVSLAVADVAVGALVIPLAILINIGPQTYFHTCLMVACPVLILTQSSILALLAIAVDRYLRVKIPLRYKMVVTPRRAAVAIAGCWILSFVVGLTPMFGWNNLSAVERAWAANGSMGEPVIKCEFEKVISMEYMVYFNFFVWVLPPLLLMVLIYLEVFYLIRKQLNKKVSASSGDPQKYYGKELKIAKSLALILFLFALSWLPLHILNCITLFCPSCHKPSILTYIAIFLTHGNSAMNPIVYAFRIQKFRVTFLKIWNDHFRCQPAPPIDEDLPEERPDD

According to patent US7504407B2, “Compounds specific to adenosine A1 and A3 receptors and uses thereof” (OSI Pharmaceuticals, Inc., priority 2001, dated 2009):

Target: human A1 adenosine receptor (Homo sapiens, UniProt P30542)
Assay: Fus1-LacZ β-galactosidase assay in yeast expressing human A1 adenosine receptor
Conditions: NECA concentration of 10^−8 M

`CCNC(=O)[C@H]1O[C@@H](n2cnc3c(N)ncnc32)[C@H](O)[C@@H]1O` was tested, and the “stimulation of β-galactosidase activity” value was “approximately 2 fold”.
